The text below walks through data of US20010056060A1, “Treatment of osteoporsis with EP2/EP4 receptor selective agonists” (priority 2000, published 2001).

Amino acid sequences for entries named in this document (tags omitted). A change or cut given only in a name is not applied to a line headed by its entry.
UniProt P43116: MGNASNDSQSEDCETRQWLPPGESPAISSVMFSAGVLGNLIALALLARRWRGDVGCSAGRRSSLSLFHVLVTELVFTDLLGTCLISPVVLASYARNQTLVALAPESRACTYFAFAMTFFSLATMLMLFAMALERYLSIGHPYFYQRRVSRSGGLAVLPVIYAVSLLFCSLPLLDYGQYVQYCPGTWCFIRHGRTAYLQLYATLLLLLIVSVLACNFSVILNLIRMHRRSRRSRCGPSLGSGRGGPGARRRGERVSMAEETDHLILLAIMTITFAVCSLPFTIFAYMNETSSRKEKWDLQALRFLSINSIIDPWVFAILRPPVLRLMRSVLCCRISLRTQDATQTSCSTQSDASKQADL

This experiment addresses EP2 receptor (Homo sapiens, UniProt P43116). Kind of experiment: Scatchard analysis of [3H]PGE2 binding in 293-S/EP2 line. Details: cDNAs representing the complete open reading frames of the human EP2 and EP4 receptors; expressed in transfected cells. To be noted: read-out: Kd for PGE2 (EP2); 293-S line stably overexpressing human EP2, approximately 338,400 receptors per cell.

As a reminder, the Kd is the equilibrium constant for the complex coming apart.

Structures are written as SMILES.

Regarding `CCCCC[C@H](O)/C=C/[C@H]1[C@H](O)CC(=O)[C@@H]1C/C=C\CCCC(=O)O` [PGE2, Prostaglandin E2], the dissociation constant (Kd) is 0.012 µM.
